Experimental data as given in ChEMBL document CHEMBL3091310, “Pseudo-cyclization through intramolecular hydrogen bond enables discovery of pyridine substituted pyrimidines as new Mer kinase inhibitors” (J Med Chem, 2013).

Biological target: T1, Tyrosine-protein kinase receptor TYRO3 (Homo sapiens, UniProt Q06418)
T1 sequence (Q06418 whole entry): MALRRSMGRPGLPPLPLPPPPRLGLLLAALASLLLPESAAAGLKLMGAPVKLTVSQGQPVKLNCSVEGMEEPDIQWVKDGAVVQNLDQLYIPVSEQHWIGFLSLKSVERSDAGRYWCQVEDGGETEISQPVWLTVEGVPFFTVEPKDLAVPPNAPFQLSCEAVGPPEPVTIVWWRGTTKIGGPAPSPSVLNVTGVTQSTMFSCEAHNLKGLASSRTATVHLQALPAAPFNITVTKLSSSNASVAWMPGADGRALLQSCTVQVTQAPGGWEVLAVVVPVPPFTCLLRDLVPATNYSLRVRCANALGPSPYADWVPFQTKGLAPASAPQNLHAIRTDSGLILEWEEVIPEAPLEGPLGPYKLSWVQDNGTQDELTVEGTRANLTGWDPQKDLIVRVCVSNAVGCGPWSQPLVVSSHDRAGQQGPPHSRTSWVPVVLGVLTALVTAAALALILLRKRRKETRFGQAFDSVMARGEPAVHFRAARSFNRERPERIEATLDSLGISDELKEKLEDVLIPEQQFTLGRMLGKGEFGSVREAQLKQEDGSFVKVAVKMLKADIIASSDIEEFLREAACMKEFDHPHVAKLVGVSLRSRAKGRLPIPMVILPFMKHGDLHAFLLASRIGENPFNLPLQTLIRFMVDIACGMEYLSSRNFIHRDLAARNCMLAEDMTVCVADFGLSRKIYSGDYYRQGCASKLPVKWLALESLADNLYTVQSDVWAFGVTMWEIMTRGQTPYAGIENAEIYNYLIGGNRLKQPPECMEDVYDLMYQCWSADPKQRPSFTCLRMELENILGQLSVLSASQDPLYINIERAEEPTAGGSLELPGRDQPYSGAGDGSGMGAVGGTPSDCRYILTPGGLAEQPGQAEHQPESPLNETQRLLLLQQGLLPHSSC

## CCCCNc1ncc(-c2cccc(CN3CCOCC3)n2)c(N[C@H]2CC[C@H](O)CC2)n1
  IC50: 0.39 µM
